One assay has as its target KOP receptor (Homo sapiens, UniProt P41145). Description: Calcium mobilization in CHO cells expressing KOP receptor and Gαqi5. The note with it: inactive = inactive up to 1 μM. It counts as cell-based. As to the method: (§1) Cells were maintained in culture medium consisting of Dulbecco's MEM/HAM'S F-12 (50/50) supplemented with 10% foetal calf serum, penicillin (100 IU/ml), streptomycin (100 μg/ml), fungizone (2.5 μg/ml), geneticin (G418; 200 μg/ml) and hygromycin B ([…]). Cell cultures were kept at 37° C. in 5% CO2 humidified air. In all cases experimental cultures were free from selection agents (hygromycin B, G418). When confluence was reached (3-4 days), cells were sub-cultured as required using trypsin EDTA and used for experimentation. Cells were seeded at a density of 50,000 cells/well into 96-well black, clear-bottom plates. After 24 hours incubation the cells were loaded with medium supplemented with 2.5 mM probenecid, 3 μM of the calcium sensitive fluorescent dye Fluo-4 AM and 0.01% pluronic acid, for 30 min at 37° C. Afterwards the loading solution was aspirated and 100 μl/well of assay buffer: Hank's Balanced Salt Solution (HBSS) supplemented with 20 mM HEPES, 2.5 mM probenecid and 500 μM Brilliant Black (Aldrich) was added. […] On-line additions were carried out in a volume of 50 μl/well. […]
(§2) Four mice were monitored in parallel. […] Animals locomotion was recorded for 60 min.
Background: Calcium assays in cells follow changes in intracellular calcium, usually with a dye or a luminescent sensor.

The chains behind the UniProt entries cited, without tags or fusion partners. Where a name states a change or a piece, a line headed by the entry shows the natural chain unless it says otherwise.
UniProt P41145: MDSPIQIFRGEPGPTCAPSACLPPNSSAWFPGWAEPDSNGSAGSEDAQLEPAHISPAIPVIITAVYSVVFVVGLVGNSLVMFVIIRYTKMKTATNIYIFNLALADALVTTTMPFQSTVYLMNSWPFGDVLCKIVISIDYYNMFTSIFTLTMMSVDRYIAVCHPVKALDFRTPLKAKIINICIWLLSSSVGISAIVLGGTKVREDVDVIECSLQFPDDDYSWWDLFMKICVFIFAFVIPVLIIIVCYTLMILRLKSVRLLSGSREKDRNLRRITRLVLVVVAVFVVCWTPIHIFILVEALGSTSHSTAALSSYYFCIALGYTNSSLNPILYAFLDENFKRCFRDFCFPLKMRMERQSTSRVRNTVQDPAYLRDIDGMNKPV
UniProt P41146: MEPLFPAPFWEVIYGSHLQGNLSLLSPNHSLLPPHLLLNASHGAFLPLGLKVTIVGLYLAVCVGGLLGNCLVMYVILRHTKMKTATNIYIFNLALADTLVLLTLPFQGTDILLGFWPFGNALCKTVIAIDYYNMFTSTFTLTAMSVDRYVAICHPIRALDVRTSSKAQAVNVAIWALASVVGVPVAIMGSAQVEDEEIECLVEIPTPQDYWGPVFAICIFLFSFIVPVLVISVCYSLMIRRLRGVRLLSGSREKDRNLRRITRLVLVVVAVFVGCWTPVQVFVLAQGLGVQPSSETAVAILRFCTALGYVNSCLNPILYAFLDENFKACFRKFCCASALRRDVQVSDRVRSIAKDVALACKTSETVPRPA
UniProt P41143, whole entry: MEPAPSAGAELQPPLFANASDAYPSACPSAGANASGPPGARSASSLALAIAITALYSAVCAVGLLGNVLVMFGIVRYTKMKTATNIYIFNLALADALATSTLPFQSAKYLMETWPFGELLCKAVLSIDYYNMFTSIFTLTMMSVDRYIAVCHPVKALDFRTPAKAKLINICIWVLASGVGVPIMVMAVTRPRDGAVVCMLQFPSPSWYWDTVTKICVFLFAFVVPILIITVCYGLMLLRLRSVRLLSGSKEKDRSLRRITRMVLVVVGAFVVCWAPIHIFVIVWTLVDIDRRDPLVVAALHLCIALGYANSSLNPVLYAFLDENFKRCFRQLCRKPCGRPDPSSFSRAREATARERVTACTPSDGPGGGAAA

Another assay deals with human NOP receptor (Homo sapiens, UniProt P41146). Description: Calcium mobilization in CHO cells expressing human NOP receptor and Gαqi5. It counts as cell-based. The note with it: maximal effect, % over the basal values. The method, then: as §1, §2
Assay [1] concerns vas deferens tissues taken from NOP(−/−) mice. Put plainly: Electrically stimulated vas deferens from NOP(−/−) mice. The arrangement: species or system mouse. As to the method: The mouse vas deferens were prepared as previously described (Calto et al., Eur J Pharmacol. 311, (1996) R3-5). Tissues were suspended in 5 ml organ baths containing heated Krebs solution (composition in mM: NaCl 118.5, KCl 4.7, KH2PO4 1.2, NaHCO3 25, glucose 10 and CaCl2 2.5) oxygenated with 95% O2 and 5% CO2. The bath temperature was set at 33° C. Tissues were continuously stimulated through two platinum ring electrodes with supramaximal rectangular pulses of 1 ms duration and 0.05 Hz frequency. A resting tension of 0.3 g was applied to the vas deferens. The electrically evoked contractions (twitches) were measured isotonically with a strain gauge transducer (Basile 7006, UgoBasile s.r.l., Varese, Italy) and recorded with the PC based acquisition system Power Lab (ADInstrument, USA). Following an equilibration period of 60 min, the contractions induced by electrical field stimulation were stable.

Assay [2] concerns spontaneous locomotor activity. Put plainly: Mouse locomotor activity, CD-1 mice, i.c.v. The note with it: recorded for 120 min. The class given is in vivo.
A further assay concerns the target T1, DOP receptor (Homo sapiens, UniProt P41143).
T1 construct: expressed in transfected cells; host or cells: CHO cells co-expressing GαqG66Di5
Put plainly: Calcium mobilization in CHO cells expressing DOP receptor and GαqG66Di5. It counts as cell-based. As to conditions: inactive = inactive up to 1 μM. As to the method: Cell cultures were kept at 37° C. in 5% CO2 humidified air. In all cases experimental cultures were free from selection agents (hygromycin B, G418). When confluence was reached (3-4 days), cells were sub-cultured as required using trypsin EDTA and used for experimentation. Cells were seeded at a density of 50,000 cells/well into 96-well black, clear-bottom plates. After 24 hours incubation the cells were loaded with medium supplemented with 2.5 mM probenecid, 3 μM of the calcium sensitive fluorescent dye Fluo-4 AM and 0.01% pluronic acid, for 30 min at 37° C. Afterwards the loading solution was aspirated and 100 μl/well of assay buffer: Hank's Balanced Salt Solution (HBSS) supplemented with 20 mM HEPES, 2.5 mM probenecid and 500 μM Brilliant Black (Aldrich) was added. […] On-line additions were carried out in a volume of 50 μl/well. To facilitate drug diffusion into the wells in antagonist type experiments, the present studies were performed at 37° C. and three cycles of mixing (25 μl from each well moved up and down 3 times) were performed immediately after antagonist injection to the wells.
as §2

Assay [3] deals with electrically stimulated mouse vas deferens. Put plainly: Electrically stimulated mouse vas deferens. As to the method: The bath temperature was set at 33° C. Tissues were continuously stimulated through two platinum ring electrodes with supramaximal rectangular pulses of 1 ms duration and 0.05 Hz frequency. A resting tension of 0.3 g was applied to the vas deferens.
assuming a slope value equal to unity, where CR indicate the ratio between agonist potency in the presence and absence of antagonist.

The text below walks through data of patent publication US9962447B2, “Supramolecular aggregates comprising maleimido cores” (UFPEPTIDES S.R.L., priority 2013, dated 2018).

B1: PWT2-N/OFQ: supramolecular aggregate of maleimido core PWT2 with nociceptin/orphanin FQ, made from PWT2 and [Cys18]N/OFQ-NH2 by thiol-Michael addition (conjugate)
peptide: SCQRDCLTCQEKLHPALDSFDLEVCILECEEKVFPSPLWTPCTKVMARSSWQLSPAAPEHVAAALYQPRASEMQHLRRMPRVRSLFQEQEEPEPGMEEAGEMEQKQLQKRFGGFTGARKSARKLANQKRFSEFMRQYLVLSMQSSQRRRTLHQNGNVC
Broadly, the Emax is the greatest response seen or fitted, relative to the assay's reference. With B1, the pEC50 entry with KOP receptor and with DOP receptor was “inactive” throughout. Moreover, in the assay with human NOP receptor, the Emax turned out to be 239 ± 14%. The “fold reduced potency in NOP(−/−) versus NOP(+/+) tissues” value in assay [1] is listed as “more than 100 fold”. For the same molecule, in assay [2], the “fold more potent than N/OFQ on locomotor activity” value is “about 40 fold”. Also, the “fold higher potency than N/OFQ” value in assay [3] is on record as “approximately 3 fold”.
